The text below walks through data of US8183371B2, “Pyrazines as delta opioid receptor modulators” (Janssen Pharmaceutica NV, priority 2009, dated 2012).

Protein sequences, listed by entry. Tags and fused reporters are not part of them.
UniProt P33533, whole entry: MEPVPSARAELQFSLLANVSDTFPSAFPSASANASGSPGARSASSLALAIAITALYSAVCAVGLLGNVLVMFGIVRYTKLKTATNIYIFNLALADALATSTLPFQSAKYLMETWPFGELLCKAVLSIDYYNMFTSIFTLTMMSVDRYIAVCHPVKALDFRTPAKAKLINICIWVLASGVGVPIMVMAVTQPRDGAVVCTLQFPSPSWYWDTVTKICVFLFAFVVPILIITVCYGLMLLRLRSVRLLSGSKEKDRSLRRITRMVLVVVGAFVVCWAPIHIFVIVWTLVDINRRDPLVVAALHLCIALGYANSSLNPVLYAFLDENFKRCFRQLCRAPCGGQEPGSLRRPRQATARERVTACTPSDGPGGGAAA

One assay concerns the target delta opioid receptor (Rattus norvegicus, UniProt P33533). The assay is described as follows: Rat brain delta opioid receptor binding assay. As to conditions: read-out: δ-binding (Naltrindole ligand) Ki; [3H]naltrindole ligand. The protocol:
Procedure: Male, Wistar rats (150-250 g, VAF, Charles River, Kingston, N.Y.) were killed by CO2, and their brains were removed and placed immediately in ice cold Tris HCl buffer (50 mM, pH 7.4). The forebrains were separated from the remainder of the brain by a coronal transection, beginning dorsally at the colliculi and passing ventrally through the midbrain-pontine junction. After dissection, the forebrains were homogenized in Tris buffer in a Teflon®-glass homogenizer. The homogenate was diluted to a concentration of 1 g of forebrain tissue per 80 mL Tris and centrifuged at 39,000×g for 10 min. The pellet was resuspended in the same volume of Tris buffer containing 5 mM MgCl2 with several brief pulses from a Polytron homogenizer. […] To each sample area 2×50 μL of Betaplate Scint scintillation fluid (LKB) was added and the radioactivity was quantified on a LKB (Wallac) 1205 BetaPlate liquid scintillation counter.
Analysis: The data from the scintillation counter were used to calculate either the % inhibition compared to control binding (when only a single concentration of test compound was evaluated) or a Ki value (when a range of concentrations was tested). Percent inhibition was calculated as: [(total dpm−test compound dpm)/(total dpm−nonspecific dpm)]*100. Kd and Ki values were calculated using GraphPad PRISM data analysis program.

The next assay deals with δ-opioid receptor (Mus musculus, UniProt P32300). As to the kind of experiment: [35S]GTPγS binding assay in NG108-15 cell membranes (delta opioid functional assay). The assay is classed as biochemical. For orientation: GTPγS resists hydrolysis and so accumulates on activated G proteins.

As a reminder, the Ki is the equilibrium dissociation constant of an inhibitor or competing ligand from its target. The EC50 is the concentration that produces a half-maximal response. With `c1ncc(-c2cnc(NC[C@@H]3CCCN3)c(Oc3ccc4occc4c3)n2)cn1`, the Ki on delta opioid receptor turned out to be 1.3 nM. Further, the “GTPγS δ-RelEfficacy @200 nM” value at δ-opioid receptor (200 nM compound, relative to calculated max of SNC80 dose response) is 0.5502. The half-maximal effective concentration (EC50) on δ-opioid receptor (read-out: GTPγS δ-opioid receptor EC50) was 79.3 nM.
